Laboratory results reported in patent US11891628B2, “Method for biomimetic culture of urothelial cells and uses thereof” (China Medical University, priority 2018, dated 2024).

Legend:
[1] = system: xenogeneic urothelial cells; assay: Cytotoxicity assay, effector lymphocytes against CFDA-SE labeled xenogeneic urothelial cells; format: cell-based, mice; details: E:T 10, 4 hours; target xenogeneic urothelial cells
Protocol: (§1) FIG. 11. The stimulatory activity on reactive T cell cytokine production and cytotoxicity in MBT-2-lu-tumor bearing mice by different treatments. IFNγ level in supernatants collected after 2 days of co-culture of lymphocytes isolated from spleens of mice with 46 different treatments with xenogeneic urothelial cells or MBT-2-luc cells was measured by ELISA. The supernatants of lymphocytes culture alone were used as the baseline control. Relative stimulatory activity of xenogeneic urothelial cells (A) and MBT-2-luc (B) on IFNγ production by lymphocytes from mice of different treatment group was calculated as the following: ([IFNγ]co-cultured-[IFNγ]baseline)/([IFNγ]baseline). […] At the end of co-culture, suspension effector cells in the wells were washed out and the intensity of CFDA-SE labelled target cells was measured. […] The relative cytotoxic activity of lymphocytes was determined following the formula: (RFUexp-RFUctrl)/RFUctrl. […]
(§2) Target xenogeneic urothelial cells or MBT-2-luc cells were labeled with CFDA-SE were plated for 24 hours and then co-cultured with effector lymphocytes isolated from 14 the spleens of mice with different treatments at effector/target (E:T) ratio=10. After 4 hour incubation, effector cells were removed, the fluorescent intensity of remaining adherent CFDA-SE labeled targets cells were measured by a fluorimeter. […]

MBT-2-luc cells = assay: Cytotoxicity assay, effector lymphocytes against CFDA-SE labeled MBT-2-luc cells; format: cell-based, mice; details: E:T 10, 4 hours; target MBT-2-luc cells
Protocol: as §1, §2

In the case of Gemcitabine plus cisplatin [GC], the “cytotoxic activity of effector lymphocytes” value [1] is reported as “increased” and the “cytotoxic activity of effector lymphocytes” value (MBT-2-luc cells) is reported as “increased”.
